# AlphaSeq binding of Ab-91 heavy chain variants to a spike HR2 peptide

Values reported by Engelhart et al. 2022, doi:10.1038/s41597-022-01779-4 (FLAb copy).

Target: peptide PDVDLGDISGINAS, taken from heptad repeat 2 (HR2) of SARS-CoV-2 spike.

Parent: Ab-91, a human scFv built as VL, the linker GGGGSGGGGSGGGGS, VH. Only the CDRs of the heavy chain vary.
VL: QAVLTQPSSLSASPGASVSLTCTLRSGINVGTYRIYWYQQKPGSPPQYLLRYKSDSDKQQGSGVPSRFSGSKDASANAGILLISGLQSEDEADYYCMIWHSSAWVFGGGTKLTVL
VH: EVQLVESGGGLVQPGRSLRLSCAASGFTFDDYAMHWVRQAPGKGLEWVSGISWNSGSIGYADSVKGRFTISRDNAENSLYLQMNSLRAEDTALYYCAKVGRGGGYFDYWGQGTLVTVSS

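Variants in AAYL51 differ from the parent at up to three CDR positions; double and triple changes were sampled at random. In AlphaSeq, yeast of one mating type display the scFv and yeast of the other type display the target. Pairs that bind mate more often; barcode pairs of the diploids are counted by sequencing. Read counts were normalised to the haploid input and turned into Kd by a linear fit to BCL2-family pairs of known affinity, for each replicate. Mating was done three times.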

Substitutions are numbered in sequence along the VH above, starting at 1 (not Kabat).
All variants listed here change S55 of the VH, counted from its first residue.
Scale: log10 of Kd in nM, estimated from mating counts; low values are strong binders.
The mean shown is taken over the replicates in which the pair was detected.
"nd" means that the variant was in the library but no mating with the target was seen in any replicate; the authors take this as a sign of poor binding, and no number exists.
In this assay the parent's reference entry averaged 1.86; its copy inside this library read 0.88.
As a blank, each scFv also met three strains without target: over library AAYL51, 21% of these pairings were detected, typically at 4.54 and seldom below 3.26.

For S52K S55H G59T, the assay gave 5.15 (3 of 3 replicates). For F27R S55E S57G, the assay gave 5.24 (3 of 3 replicates). Variant S55H I58F G103S gave nd (0 of 3 replicates). With S55M Y60I F106H the result was 5.58 (2 of 3 replicates). Variant G26F S55V I58E gave 5.58 (2 of 3 replicates). For G26K F27W S55G, the assay gave 4.07 (1 of 3 replicates). Variant W53L S55F Y108H gave 4.44 (3 of 3 replicates). Variant S55K gave 3.15 (3 of 3 replicates). Variant S55W G100I Y105N showed nd (0 of 3 replicates).

For D30P S55G Y105N, the assay gave 3.42 (3 of 3 replicates). With G26K S55W S63M the result was 5.05 (2 of 3 replicates). For S55C V64L, the assay gave 3.22 (1 of 3 replicates). Variant S55T S57C G59H gave nd (0 of 3 replicates). Variant S55K S57D G104I showed 1.28 (3 of 3 replicates). Variant H35T S55L R101N showed nd (0 of 3 replicates). With D31H S55E G100K the result was 4.31 (1 of 3 replicates). Variant S55I G59C G100M showed 6.34 (1 of 3 replicates). Variant W53C S55C G103K gave nd (0 of 3 replicates).

Variant S55T S63R G102T showed 4.98 (1 of 3 replicates). For S55R I58E D107T, the assay gave 5.44 (2 of 3 replicates). For T28F S55Q S63V, the assay gave nd (0 of 3 replicates). With D31A S55F V99I the result was 3.38 (3 of 3 replicates). Variant G26A S55C G56C showed 4.63 (3 of 3 replicates). With S55N K65D R101S the result was 4.16 (1 of 3 replicates). Variant S55Y Y60V K65Y gave 4.77 (2 of 3 replicates). Variant S55G S63P G100S gave 3.69 (1 of 3 replicates). Variant N54Q S55H G100E gave 5.70 (1 of 3 replicates).

With S55H S63E the result was 4.63 (3 of 3 replicates). For F29C S55V G56R, the assay gave 3.31 (1 of 3 replicates). With S55P I58M G100R the result was nd (0 of 3 replicates). For S55G S63C G100N, the assay gave 5.68 (1 of 3 replicates). For S55V K65P Y108C, the assay gave 2.32 (1 of 3 replicates). With S55A G56C G100S the result was 2.13 (3 of 3 replicates). With D30V S55N G104T the result was 4.33 (2 of 3 replicates). With D31Y S55R G59A the result was nd (0 of 3 replicates). Variant I51K S55V I58V showed nd (0 of 3 replicates).

Variant G26P W53R S55C showed nd (0 of 3 replicates). Variant S55A showed 5.43 (2 of 3 replicates). Variant S55H gave 4.71 (3 of 3 replicates). With F29Q S52V S55R the result was 4.92 (3 of 3 replicates). Variant Y32C S55I D107T gave 5.48 (2 of 3 replicates). For I51W S55L, the assay gave 5.21 (2 of 3 replicates). For G26Q W53V S55G, the assay gave 4.97 (2 of 3 replicates). Variant S55D V99S Y105D showed nd (0 of 3 replicates). Variant W53P S55R I58V gave 0.58 (3 of 3 replicates).

Variant T28G W53K S55P gave nd (0 of 3 replicates). With G26S S55R G103L the result was nd (0 of 3 replicates). With W53R S55Y R101H the result was 4.75 (2 of 3 replicates).